Only some compounds are listed: those with a hit (about 1.1% of all), similar ones and a draw of the others.
miR-21 reporter – raises the signal of a miR-21 reporter; AID 2288; 340,000 tested, under 10 active; Potency, µM (doses to about 38.3 µM), inactives show at the top dose reporter change, positive = more light; HeLa miR-21 FLuc reporter, luciferase, 48 h; active = well fitted rising curve with a large enough effect; inconclusive = small, poorly fitted or top-dose-only effect; inactive = no such curve, though single readings can be large or run the other way;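 note: % of control where 0% means no effect; miR-21 action dims this reporter so a rising signal means less miR-21 action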
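HeLa cells stably expressing CMV-driven firefly luciferase with a downstream miR-21 binding sequence, endogenously expressing miR-21, were treated with titrations (up to about 40uM final) for 48 hours at 37 degree Celsius. Luciferase luminescence was read after lysis.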
Apoferritin bind – candidate novel general anesthetic via apoferritin binding; hit rate 0.074% among 350,000; apoferritin/1-aminoanthracene competitive binding, fluorescence; P02791; Potency, µM (top dose mostly 77.5 µM), without a hit: at the highest dose activity change, negative = displacement, actives largely listed as inhibitors; also: potency is read from the fitted curve at half-maximal effect; % is scaled to controls: 0 for no effect and ±100 for the full control effect; nearly all actives have a fitted effect of over 20% in size
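Probe: 1-aminoanthracene (50% saturated, PBS). Protein: horse-spleen apoferritin, 10 uM. Incubation: 10 min, room temperature. Detection: 380 nm excitation, 535 nm emission. Analysis: normalized response, four-parameter Hill.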
p53 reactivation – restores transcriptional activity of mutant p53 | AID 504706 | H1299 p53-A138V BP100-luciferase reporter, luminescence, 24 h | Potency, µM (doses to about 92.2 µM), for the others: at the highest dose activity change, positive = activation, actives largely listed as activators | hit rate 0.063% among 320,000; also: potency is read from the fitted curve at half-maximal effect; % of control where 0% means no effect; nearly all actives have a fitted effect of over 45% in size
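p53-null H1299 cells stably carrying temperature-sensitive p53-A138V and a BP100-luciferase reporter were pinned with compounds (4-point, 1:5 series) and held 24 hrs at 37 deg C. Luminescence was read 10 min after detection reagent.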
BRCA1 expr act – activators of BRCA1 expression; MCF7-BRCA1-FFLuc reporter, luminescence, 48 h; response scale: scaled: vehicle 0%, 10 µM genistein 100%; Potency, µM (top dose mostly 46.1 µM), for the others: at the top dose activation, actives largely listed as activators; hit rate 1.1% among 380,000; also: potency is read from the fitted curve at half-maximal effect; nearly all actives have a fitted effect of over 80% in size
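Luminescence from a BRCA1-driven firefly luciferase in MCF7 cells was read after 48 h compound exposure at 37 C. Data normalized against DMSO and a 10microM genistein activation control, then curve-fitted across the titration.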
* marks the source's active call; other numbers are inactive results. Unless noted, calls follow the shape of the dose curve; as a rule, active = well fitted curve in the direction sought with a large enough effect; inconclusive = small, poorly fitted or top-dose-only effect, or another doubt; inactive = no such curve, though single readings can be large; an effect the other way counts as inactive or inconclusive.

`O=C(Cc1ccc(NC(=O)C2CCN(C(=O)c3ccccc3)CC2)cc1)Nc1cccc(C(=O)N2CCCC2)c1` gave BRCA1 expr act 12%.
Screening C=CCn1c(NCc2ccc(OC)cc2O)nc2ccccc21 returned miR-21 reporter -41%, Apoferritin bind -9%, p53 reactivation 7% and BRCA1 expr act 13µM*.
`O=C(N/N=C/c1ccc2c(c1)OCO2)c1ccc2c(c1)OCO2` gave miR-21 reporter -15%, Apoferritin bind 0%, p53 reactivation 0% and BRCA1 expr act 8.9µM*.
Screening Cc1ccsc1/C=N\NC(=O)c1cc(C(C)(C)C)[nH]n1 returned miR-21 reporter -67%, Apoferritin bind -21%, p53 reactivation 4% and BRCA1 expr act 5µM*.
Cc1ccsc1/C=N/NC(=O)c1ccc(-n2cccc2)cc1 was read as miR-21 reporter -60%, Apoferritin bind -18%, p53 reactivation 2% and BRCA1 expr act 11µM*.
Cc1cc(C(=O)N/N=C/c2ccc(C)s2)n[nH]1 was read as miR-21 reporter -58%, Apoferritin bind -7%, p53 reactivation inconclusive and BRCA1 expr act 7.1µM*.
`COC(=O)C1=C(\O)CCCC/C=C\1C(=O)O` gave BRCA1 expr act -1%.
Screening Cc1ccc2[nH]c(=O)c(CN(C(=O)c3cccc(Cl)c3)C(C)(C)C)cc2c1 returned miR-21 reporter -1% and Apoferritin bind -11%.
`Cc1ccc(CC(=O)N/N=C/c2ccc3c(c2)OCO3)cc1` gave miR-21 reporter -24%, Apoferritin bind -17%, p53 reactivation 4% and BRCA1 expr act 8.9µM*.
Cc1ccc(/C=N/NC(=O)c2ccc3ccccc3c2)s1 was read as miR-21 reporter -21%, Apoferritin bind -6%, p53 reactivation 4% and BRCA1 expr act 36%.
Screening O=C(CCc1ccc(O)cc1)NN=Cc1ccc2c(c1)OCO2 returned BRCA1 expr act 0%.
Screening Cc1ccc(/C=N/NC(=O)c2ccc3c(c2)OCCO3)s1 returned miR-21 reporter 6%, Apoferritin bind -8%, p53 reactivation 12% and BRCA1 expr act 2.5µM*.
`S=C(NN=Cc1ccc2c(c1)OCO2)NN=Cc1ccc2c(c1)OCO2` gave BRCA1 expr act 3%.
`O=C(N/N=C\c1ccc2c(c1)OCO2)c1ccco1` gave miR-21 reporter -52%, Apoferritin bind -4%, p53 reactivation inconclusive and BRCA1 expr act 3.2µM*.
For O=C(N/N=C/c1ccc2c(c1)OCO2)C1CC1 the results were miR-21 reporter -38%, Apoferritin bind -14%, p53 reactivation inconclusive and BRCA1 expr act 7.9µM*.
For CC(C)(C)OC(=O)N1CCN(c2ccc(NC(=O)c3ccco3)cc2)CC1 the results were miR-21 reporter 3%, Apoferritin bind -3%, p53 reactivation 12% and BRCA1 expr act 11%.
Screening C/C(=N\OCC(=O)NCC(F)(F)F)c1cc2ccccc2o1 returned miR-21 reporter -58%, Apoferritin bind -2%, p53 reactivation inconclusive and BRCA1 expr act 13µM*.
Screening O=C(NC1CC1)c1sc2cc([N+](=O)[O-])ccc2c1Cl returned miR-21 reporter -47%, Apoferritin bind -3%, p53 reactivation 17% and BRCA1 expr act 53%.
For Cc1ccc2c(Cl)c(C(=O)NC3CC3)sc2c1 the results were miR-21 reporter -55%, Apoferritin bind -4%, p53 reactivation 23% and BRCA1 expr act 2.8µM*.
CN(C)CCCNc1cc(C(C)(C)C)nc2c(-c3ccccc3)cnn12 was read as miR-21 reporter 49%, Apoferritin bind -9%, p53 reactivation 2% and BRCA1 expr act 5.6µM*.
Screening CC(C)(C)c1cc(NCCCn2ccnc2)n2ncc(-c3ccc(Cl)cc3)c2n1 returned miR-21 reporter -47%, Apoferritin bind 111%, p53 reactivation -1% and BRCA1 expr act -18%.
`O=C1c2ccccc2C(=O)N1CCC1=CCCCC1` gave miR-21 reporter -32%, Apoferritin bind 22µM*, p53 reactivation inconclusive and BRCA1 expr act -49%.
`NS(=O)(=O)c1ccc(N/C=C\C(=O)c2ccc(F)cc2)cc1` gave miR-21 reporter -49%, Apoferritin bind 3%, p53 reactivation 7% and BRCA1 expr act 1µM*.
`CCCc1nnc(NC(=O)c2cccc(OC)c2)s1` gave miR-21 reporter -37%, Apoferritin bind -19%, p53 reactivation 17% and BRCA1 expr act 7.1µM*.
CCOCc1nnc(NC(=O)c2ccc(NC(C)=O)cc2)s1 was read as miR-21 reporter -2%, Apoferritin bind -2%, p53 reactivation -4% and BRCA1 expr act -2%.
Screening CCCc1nnc(NC(=O)Nc2ccccc2OC)s1 returned miR-21 reporter -63%, Apoferritin bind inconclusive, p53 reactivation inconclusive and BRCA1 expr act 22µM*.
`CCOCc1nnc(NC(=O)c2ccc(OC)cc2)s1` gave miR-21 reporter -36%, Apoferritin bind 2%, p53 reactivation inconclusive and BRCA1 expr act 13µM*.
`COc1ccc(NC(=O)CCCN2C(=O)CCn3nc(-c4cn(C)c5ccccc45)cc32)cc1` gave miR-21 reporter -2% and Apoferritin bind 1%.
For COC(=O)C1=C(C)N(C(C)C)C(=O)C1(NC(=O)c1ccccc1OC)C(F)(F)F (stereo unspecified) the results were miR-21 reporter -10% and Apoferritin bind -10%.
Screening Cc1ccc(-c2nc3scc(CCNC(=O)Cc4ccc(Cl)cc4)n3n2)cc1 returned miR-21 reporter 15% and Apoferritin bind 0%.
`CCOC(=O)COn1c(-c2cccc(Cl)c2)nc2ccc([N+](=O)[O-])cc21` gave miR-21 reporter -32%, Apoferritin bind -22%, p53 reactivation inconclusive and BRCA1 expr act 7.1µM*.
Cn1c(NNC(=O)CCC2CCCCC2)cc(=O)n(C)c1=O was read as miR-21 reporter -10%, Apoferritin bind -6%, p53 reactivation -2% and BRCA1 expr act -27%.
For Cc1ccc(NC(=O)C2CCCC2)c(Br)c1 the results were BRCA1 expr act 29%.
`O=C(CCC1CCCCC1)Nc1ccccc1O` gave miR-21 reporter -58%, Apoferritin bind inconclusive, p53 reactivation inconclusive and BRCA1 expr act -4%.
`Cc1ccc(NC(=O)COC(=O)CCC(=O)c2cccs2)c(Br)c1` gave p53 reactivation 4% and BRCA1 expr act 3%.
Cn1c(NC(=O)CCC2CCCCC2)cc(=O)n(C)c1=O was read as miR-21 reporter -61%, Apoferritin bind inconclusive, p53 reactivation inconclusive and BRCA1 expr act 2.2µM*.
For Cc1ccc(O)c(NC(=O)CCC2CCCCC2)c1 the results were miR-21 reporter -38%, Apoferritin bind inconclusive, p53 reactivation 10% and BRCA1 expr act 4µM*.
Screening Cc1ccc(NC(=O)CC2CCCC2)c(Br)c1 returned miR-21 reporter -66%, Apoferritin bind inconclusive, p53 reactivation inconclusive and BRCA1 expr act 13µM*.
Screening Cc1ccc(NC(=O)CCC(=O)c2cccs2)c(Br)c1 returned miR-21 reporter -53%, Apoferritin bind inconclusive, p53 reactivation 11% and BRCA1 expr act 6.3µM*.

In the list so far, these contain bromine:
For Cc1ccc(NC(=O)C2CCCC2)c(Br)c1 the results were BRCA1 expr act 29%.
`Cc1ccc(NC(=O)COC(=O)CCC(=O)c2cccs2)c(Br)c1` gave p53 reactivation 4% and BRCA1 expr act 3%.
Screening Cc1ccc(NC(=O)CC2CCCC2)c(Br)c1 returned miR-21 reporter -66%, Apoferritin bind inconclusive, p53 reactivation inconclusive and BRCA1 expr act 13µM*.
Screening Cc1ccc(NC(=O)CCC(=O)c2cccs2)c(Br)c1 returned miR-21 reporter -53%, Apoferritin bind inconclusive, p53 reactivation 11% and BRCA1 expr act 6.3µM*.
